# Yeast mating assay 2: variants of the scFv Ab-91

Reference: Engelhart et al. 2022, doi:10.1038/s41597-022-01779-4. File: FLAb, binding data.

Binding partner: SARS-CoV-2 spike HR2 peptide, sequence PDVDLGDISGINAS.

Ab-91 is the parent antibody, in scFv form: VL, then a 15-residue (Gly4Ser)3 linker, then VH. The light chain is unchanged in all variants.
VL: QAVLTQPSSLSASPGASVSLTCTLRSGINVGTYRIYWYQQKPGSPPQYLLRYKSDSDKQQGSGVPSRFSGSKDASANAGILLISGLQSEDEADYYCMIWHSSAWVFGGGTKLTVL
VH: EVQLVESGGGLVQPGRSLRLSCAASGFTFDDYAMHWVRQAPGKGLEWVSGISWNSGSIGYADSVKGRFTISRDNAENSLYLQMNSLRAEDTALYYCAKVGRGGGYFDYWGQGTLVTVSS

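Phage display of a naive human antibody library on the peptide gave the parent. The library (AAYL51) carries one to three amino acid substitutions per variant, with no insertions or deletions. The scFvs were displayed on barcoded MATa yeast, the peptide on MATalpha yeast. The frequency of each diploid, read from paired DNA barcodes, reflects how well the two displayed proteins bind. The ratio of observed to expected reads was calibrated, replicate by replicate, on BCL2-family standards whose Kd was known from biolayer interferometry. Each pool was mated in three replicate cultures.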

Each variant is given by its three heavy chain CDRs, as the data file delimits them; those of the parent are GFTFDDYAMH, GISWNSGSIGYADSVK, VGRGGGYFDY. Scale: log10 of Kd in nM, estimated from mating counts; low values are strong binders. A mean of the replicates is given; it leaves out those without a signal. Where no diploid with the target was found in that replicate, the entry reads "ND": below detection, most likely a poor binder, though not proof of it. For reference, the parent read 1.86 as the reference entry and 0.88 as a member of this library. Background: pairings of library AAYL51 with three empty control strains gave a value in 21% of cases (median 4.54, 5th percentile 3.26). Values in that range, when seen in few replicates, are hard to tell from nonspecific mating. Also given: how often the same scFv was detected with the empty control strains, with their mean in brackets.

{"CDR-H1": "GFTFDDYAMH", "CDR-H2": "GISWNSGSIGYADRVK", "CDR-H3": "VGRGCGYFDY", "replicates, log10 nM": "4.26 ND 5.50", "mean log10 Kd (nM)": "4.88", "empty controls": "3/9 (4.93)"}
{"CDR-H1": "GFTFDEYAMH", "CDR-H2": "GISWNSGSIGYADSLK", "CDR-H3": "VGRGGGIFDY", "replicates, log10 nM": "ND ND ND", "mean log10 Kd (nM)": "ND", "empty controls": "1/9 (2.75)"}
{"CDR-H1": "GFTFDDRAMH", "CDR-H2": "GISWNEGSIGYADSVK", "CDR-H3": "VGRGGGNFDY", "replicates, log10 nM": "ND 3.51 ND", "mean log10 Kd (nM)": "3.51", "empty controls": "0/9"}
{"CDR-H1": "GITFDDYAMH", "CDR-H2": "GISWNSGSIGYAESVK", "CDR-H3": "VWRGGGYFDY", "replicates, log10 nM": "6.53 5.72 ND", "mean log10 Kd (nM)": "6.12", "empty controls": "7/9 (4.92)"}
{"CDR-H1": "GFTFDDYALH", "CDR-H2": "GISQNSGSIPYADSVK", "CDR-H3": "VGRGGGYFDY", "replicates, log10 nM": "3.97 ND ND", "mean log10 Kd (nM)": "3.97", "empty controls": "5/9 (4.89)"}
{"CDR-H1": "GFTWDDYAMH", "CDR-H2": "GISWNSGSIGYAPSVK", "CDR-H3": "VGRGGPYFDY", "replicates, log10 nM": "ND ND ND", "mean log10 Kd (nM)": "ND", "empty controls": "0/9"}
{"CDR-H1": "GFTFIDYAMH", "CDR-H2": "GISWDSGSIGYADSVK", "CDR-H3": "VGRGGGQFDY", "replicates, log10 nM": "1.35 1.32 0.92", "mean log10 Kd (nM)": "1.20", "empty controls": "3/9 (5.50)"}
{"CDR-H1": "IFTFDDYAMH", "CDR-H2": "GISWNSGSIGHADSVK", "CDR-H3": "VGRGGGYFCY", "replicates, log10 nM": "ND ND ND", "mean log10 Kd (nM)": "ND", "empty controls": "0/9"}
{"CDR-H1": "GFTFDDYAMH", "CDR-H2": "GRSWNIGSIGYADSVK", "CDR-H3": "VGRGGCYFDY", "replicates, log10 nM": "4.77 ND ND", "mean log10 Kd (nM)": "4.77", "empty controls": "1/9 (4.73)"}
{"CDR-H1": "GFTFDDYAMH", "CDR-H2": "GISWNKGSIGYADSVK", "CDR-H3": "VGRGGGYADY", "replicates, log10 nM": "4.78 5.11 4.62", "mean log10 Kd (nM)": "4.84", "empty controls": "1/9 (4.77)"}
{"CDR-H1": "GFTFDDYAMH", "CDR-H2": "PISWNSGSIGYADSTK", "CDR-H3": "VFRGGGYFDY", "replicates, log10 nM": "ND ND ND", "mean log10 Kd (nM)": "ND", "empty controls": "0/9"}
{"CDR-H1": "GFTFDDYAMH", "CDR-H2": "GISWNSGSIWYADHVK", "CDR-H3": "VGRGGGYFQY", "replicates, log10 nM": "4.34 4.00 ND", "mean log10 Kd (nM)": "4.17", "empty controls": "1/9 (3.31)"}
{"CDR-H1": "GFTFDDYAMH", "CDR-H2": "GISWWSGSIGMADSVK", "CDR-H3": "VGRGGGYFDY", "replicates, log10 nM": "4.40 5.67 ND", "mean log10 Kd (nM)": "5.04", "empty controls": "4/9 (4.52)"}
{"CDR-H1": "GFTFDDYAKH", "CDR-H2": "GISNNSGSIGTADSVK", "CDR-H3": "VGRGGGYFDY", "replicates, log10 nM": "ND ND ND", "mean log10 Kd (nM)": "ND", "empty controls": "0/9"}
{"CDR-H1": "GFRFDDYAMH", "CDR-H2": "GISWRSGSIGYADSVK", "CDR-H3": "VGRSGGYFDY", "replicates, log10 nM": "ND 5.29 5.45", "mean log10 Kd (nM)": "5.37", "empty controls": "2/9 (4.60)"}
{"CDR-H1": "GFTFDDYAMH", "CDR-H2": "GISWSSGYPGYADSVK", "CDR-H3": "VGRGGGYFDY", "replicates, log10 nM": "ND 5.93 4.81", "mean log10 Kd (nM)": "5.37", "empty controls": "5/9 (4.45)"}
{"CDR-H1": "GFTFDNYAMH", "CDR-H2": "GISWNAGSIGYAKSVK", "CDR-H3": "VGRGGGYFDY", "replicates, log10 nM": "ND ND ND", "mean log10 Kd (nM)": "ND", "empty controls": "3/9 (4.05)"}
{"CDR-H1": "GFTFDDYAMH", "CDR-H2": "GYSWNSGLIGYADSVK", "CDR-H3": "VGRGGGYHDY", "replicates, log10 nM": "ND ND ND", "mean log10 Kd (nM)": "ND", "empty controls": "0/9"}
{"CDR-H1": "GFTFDDNARH", "CDR-H2": "GIPWNSGSIGYADSVK", "CDR-H3": "VGRGGGYFDY", "replicates, log10 nM": "4.54 3.99 5.07", "mean log10 Kd (nM)": "4.53", "empty controls": "6/9 (4.43)"}
{"CDR-H1": "GFTFDDRAMH", "CDR-H2": "GISWNSGSIGYAFSVK", "CDR-H3": "VSRGGGYFDY", "replicates, log10 nM": "ND ND ND", "mean log10 Kd (nM)": "ND", "empty controls": "0/9"}
{"CDR-H1": "GFTFDDYAMH", "CDR-H2": "GISDNSGSIGFADSVK", "CDR-H3": "VERGGGYFDY", "replicates, log10 nM": "4.04 ND ND", "mean log10 Kd (nM)": "4.04", "empty controls": "1/9 (3.00)"}
{"CDR-H1": "GFTFDDYIML", "CDR-H2": "GIQWNSGSIGYADSVK", "CDR-H3": "VGRGGGYFDY", "replicates, log10 nM": "ND ND ND", "mean log10 Kd (nM)": "ND", "empty controls": "0/9"}
{"CDR-H1": "GFTFDDYACH", "CDR-H2": "GISWNSGSIGYADSVK", "CDR-H3": "HGRYGGYFDY", "replicates, log10 nM": "ND ND 4.67", "mean log10 Kd (nM)": "4.67", "empty controls": "2/9 (4.41)"}
{"CDR-H1": "GFTFDTYAMH", "CDR-H2": "GISWNSGSIGYADSVK", "CDR-H3": "VGRGGGYFPY", "replicates, log10 nM": "1.05 1.39 0.70", "mean log10 Kd (nM)": "1.05", "empty controls": "2/9 (3.57)"}
{"CDR-H1": "GFTFDDYAMH", "CDR-H2": "DISWNSGSIGYADSVK", "CDR-H3": "VGIGGGRFDY", "replicates, log10 nM": "4.27 ND 4.98", "mean log10 Kd (nM)": "4.62", "empty controls": "4/9 (4.18)"}
{"CDR-H1": "GFTFDDYAMH", "CDR-H2": "GISWQSGSIGYADSVK", "CDR-H3": "VGRGGGYDIY", "replicates, log10 nM": "2.88 2.63 3.04", "mean log10 Kd (nM)": "2.85", "empty controls": "1/9 (5.40)"}
{"CDR-H1": "GFTFDDYAMP", "CDR-H2": "PASWNSGSIGYADSVK", "CDR-H3": "VGRGGGYFDY", "replicates, log10 nM": "ND ND ND", "mean log10 Kd (nM)": "ND", "empty controls": "2/9 (4.29)"}
{"CDR-H1": "GFTFDDYALH", "CDR-H2": "GISWNSGSITYVDSVK", "CDR-H3": "VGRGGGYFDY", "replicates, log10 nM": "4.58 5.05 ND", "mean log10 Kd (nM)": "4.82", "empty controls": "5/9 (5.21)"}
{"CDR-H1": "GLTFDDYAMH", "CDR-H2": "GITWNSGSIGYAFSVK", "CDR-H3": "VGRGGGYFDY", "replicates, log10 nM": "ND 5.09 ND", "mean log10 Kd (nM)": "5.09", "empty controls": "6/9 (4.66)"}
{"CDR-H1": "GHTFDDYAMH", "CDR-H2": "GISWQSGSIGYADSVK", "CDR-H3": "VGRGRGYFDY", "replicates, log10 nM": "4.51 6.21 5.20", "mean log10 Kd (nM)": "5.31", "empty controls": "7/9 (5.55)"}
{"CDR-H1": "GFTFVDYAMH", "CDR-H2": "GISWNSGSIGYADSVK", "CDR-H3": "VGQGGGYFDN", "replicates, log10 nM": "3.30 3.36 4.55", "mean log10 Kd (nM)": "3.73", "empty controls": "7/9 (4.84)"}
{"CDR-H1": "GFTFDDYAHH", "CDR-H2": "GASWNSGSIGYADSVK", "CDR-H3": "VGRGGGYEDY", "replicates, log10 nM": "ND ND ND", "mean log10 Kd (nM)": "ND", "empty controls": "2/9 (4.32)"}

The last 4 entries again:

{"CDR-H1": "GLTFDDYAMH", "CDR-H2": "GITWNSGSIGYAFSVK", "CDR-H3": "VGRGGGYFDY", "replicates, log10 nM": "ND 5.09 ND", "mean log10 Kd (nM)": "5.09", "empty controls": "6/9 (4.66)"}
{"CDR-H1": "GHTFDDYAMH", "CDR-H2": "GISWQSGSIGYADSVK", "CDR-H3": "VGRGRGYFDY", "replicates, log10 nM": "4.51 6.21 5.20", "mean log10 Kd (nM)": "5.31", "empty controls": "7/9 (5.55)"}
{"CDR-H1": "GFTFVDYAMH", "CDR-H2": "GISWNSGSIGYADSVK", "CDR-H3": "VGQGGGYFDN", "replicates, log10 nM": "3.30 3.36 4.55", "mean log10 Kd (nM)": "3.73", "empty controls": "7/9 (4.84)"}
{"CDR-H1": "GFTFDDYAHH", "CDR-H2": "GASWNSGSIGYADSVK", "CDR-H3": "VGRGGGYEDY", "replicates, log10 nM": "ND ND ND", "mean log10 Kd (nM)": "ND", "empty controls": "2/9 (4.32)"}